Values quoted from earlier work as cited in article PMC7717710, “Synthesis, computational studies and assessment of in vitro inhibitory activity of umbelliferon-based compounds against tumour-associated carbonic anhydrase isoforms IX and XII” (Journal of Enzyme Inhibition and Medicinal Chemistry, 2020).
pKi: −log10 of the molar value.

Amino acid sequences for entries named in this document (tags omitted). A change or cut given only in a name is not applied to a line headed by its entry.
UniProt P00915: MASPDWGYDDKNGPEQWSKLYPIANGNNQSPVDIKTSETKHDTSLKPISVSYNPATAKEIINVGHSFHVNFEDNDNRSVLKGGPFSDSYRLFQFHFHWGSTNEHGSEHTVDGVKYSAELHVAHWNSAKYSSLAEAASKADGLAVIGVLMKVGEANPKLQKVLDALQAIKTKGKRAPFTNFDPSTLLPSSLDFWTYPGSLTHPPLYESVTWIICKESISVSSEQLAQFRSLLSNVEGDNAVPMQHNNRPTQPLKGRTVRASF

Columns and labels:
hCA II = target: T1, hCA II (Homo sapiens, UniProt P00918); parameters: method as in PMID 29197732; settings: reference compounds; read-out: Inhibition data (Ki) hCA II; cited from earlier work
T1 construct: made in house

hCA I = target: T2, hCA I (Homo sapiens, UniProt P00915); parameters: method as in PMID 29197732; settings: reference compounds; read-out: Inhibition data (Ki) hCA I; cited from earlier work
T2 construct: made in house

O=c1ccc2ccc(O)cc2o1 [Umbelliferon, 7-hydroxy-2H-chromen-2-one]
pKi (hCA II): < 5.00 | pKi (hCA I): < 5.00
